Data published in patent publication US20150376225A1, “NOVEL COMPOUNDS OF 11BETA-HYDROXY-STEROIDS FOR USE IN MITOCHONDRIA BIOGENESIS AND DISEASES ASSOCIATED WITH MITOCHONDRIAL DYSFUNCTION OR DEPLETION” (SPHAERA PHARMA PVTD. LTD., priority 2013, published 2015).

System: AMPK
Assay: AMPK activation, cell based ELISA in Hep G2 cells
Procedure: AMPK Activation Protocol:
AMPK activation potential of the compounds was evaluated using cell based ELISA.
Hepatoma (Hep G2) liver cells were maintained in a T 75 culture flask-containing 25 mM DMEM+10% fetal calf serum. The cells were maintained in a T 75 culture flask-containing medium (DMEM+10% fetal calf serum). On reaching a confluence of 70 to 80%, the cells were seeded in a 96 well plate at a density of 40,000 cells per well in 25 mM DMEM+10% FCS medium. The plates were then incubated at 37° C. with 5% CO2 for 24 hours. […] The cells were incubated with 1:1000 dilution primary antibody (Phospho-AMPKα (Thr172) Rabbit mAb, CellSignaling in PBS-T containing 5% BSA at 4° C. overnight. The cells were then washed three times with PBS-T for 5 minutes and incubated with 1:1000 dilution secondary antibody (Anti-rabbit IgG, HRP-linked Antibody, Cell Signaling) in PBS-T with 1% BSA for 1 hour at RT. Cells were washed three times with PBS-T for 5 minutes The cells were incubated with 100 μl TMB substrate solution for 30 minutes and the reaction was stopped with 100 μl of 2N H2SO4. Then the plate was read at 450 nm using ELISA plate reader and absorbance recorded. % activity was calculated using DMSO control as 100%.

Compound	% activation pAMPK at 1 nM [%]
CC(O)C1CCC2C3CCC4=CC(=O)CC[C@]4(C)C3[C@@H](O)C[C@]12C (stereo partly drawn) [Compound 1032, (10R,11S,13S)-11-hydroxy-17-(1-hydroxyethyl)-10,13-dimethyl-1,2,6,7,8,9,10,11,12,13,14,15,16,17-tetradecahydro-3H-cyclopenta[a]phenanthren-3-one]	105
CC(=O)[C@H]1CCC2C3CCC4CC(=O)CC[C@]4(C)C3[C@@H](O)C[C@@]21C (stereo partly drawn) [Compound 1026, (10S,11S,13S,17S)-17-acetyl-11-hydroxy-10,13-dimethylhexadecahydro-3H-cyclopenta[a]phenanthren-3-one]	110
